Ab-95 light chain CDR variants: yeast mating affinities

Binding partner: SARS-CoV-2 spike HR2 peptide, sequence PDVDLGDISGINAS.

Each scFv is VH, the linker GGGGSGGGGSGGGGS, VL, as in the parent Ab-95, and differs from it in the CDRs of the light chain only.
VH: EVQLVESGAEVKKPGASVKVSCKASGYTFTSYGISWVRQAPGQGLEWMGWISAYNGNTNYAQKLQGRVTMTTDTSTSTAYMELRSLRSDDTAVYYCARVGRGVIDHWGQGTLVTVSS
VL: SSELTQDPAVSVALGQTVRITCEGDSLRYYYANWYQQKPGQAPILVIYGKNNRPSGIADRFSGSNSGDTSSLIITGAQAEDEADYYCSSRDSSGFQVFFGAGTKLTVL

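The parent was found by panning a naive human phage display library on the peptide. Variants in AAYL52 differ from the parent at up to three CDR positions; double and triple changes were sampled at random. Affinity was read by AlphaSeq, a pooled yeast mating assay with surface-displayed partners. Binding brings cells together so that they mate, and sequencing counts the barcode pairs among the diploids. Scores were corrected for input abundance and mapped to Kd with protein pairs of known affinity run in the same pool. The assay was run in three technical replicates.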

Each variant is given by its three light chain CDRs, as the data file delimits them; those of the parent are EGDSLRYYYAN, GKNNRPS, SSRDSSGFQVF. All variants listed here change K50 of the VL, counted from its first residue. The read-out is the apparent dissociation constant on a log10 scale (nM): the lower, the stronger. The mean shown is taken over the replicates in which the pair was detected. "ND" means that the variant was in the library but no mating with the target was seen in that replicate; the authors take this as a sign of poor binding, and no number exists. Parent in this assay: reference entry 2.31, copy in this library 2.25. Background: pairings of library AAYL52 with three empty control strains gave a value in 28% of cases (median 3.91, 5th percentile 2.90). Values in that range, when seen in few replicates, are hard to tell from nonspecific mating. Also given: how often the same scFv was detected with the empty control strains.

With EGDSLRYYYAN | GNNNRPT | SSRDSSGMQVF the result was 2.78, 2.47, 2.02 (mean 2.42; controls 6 of 9). With EGDDLRYYYAN | GINNRPS | SSRDSSGFQVF the result was ND, 3.19, 2.16 (mean 2.67; controls 4 of 9). Variant EGDSLRYYYAN | GDNNRPS | SSRDWSSFQVF showed 2.01, 2.00, 1.41 (mean 1.81; controls 5 of 9). Variant EADSLRYYYAN | GANNRPS | SSRDSSGFQVQ showed ND, ND, ND (controls 2 of 9). With EGDSLRYYYAN | HPNNRPS | CSRDSSGFQVF the result was ND, 4.53, 3.71 (mean 4.12; controls 4 of 9). Variant EGISLRYYYAN | GANNRPS | SSRDSSGDQVF gave 2.85, 2.25, 2.23 (mean 2.44; controls 6 of 9). For EGDSLAYYYAN | GHNNRPS | SMRDSSGFQVF, the assay gave 3.56, 3.09, 2.87 (mean 3.17; controls 2 of 9). Variant EEDSLPYYYAN | GSNNRPS | SSRDSSGFQVF gave ND, 3.17, ND (controls 3 of 9).

With EGDSLRYYYAN | GVNNQPS | SSRDSSRFQVF the result was 3.94, 3.92, 3.65 (mean 3.84; controls 6 of 9). For EGDSLRYRYAN | GVNNRPS | SSRDSQGFQVF, the assay gave 1.90, 2.01, 1.54 (mean 1.82; controls 5 of 9). For EGDSLRYYYAN | GDNNRPS | SSRDSSGFQAF, the assay gave 3.78, 4.29, 3.41 (mean 3.83; controls 2 of 9). Variant EGDSLRYYYAN | GGNNRFS | SSRDSSGNQVF gave 3.30, 2.96, 2.32 (mean 2.86; controls 2 of 9). For EGDSLRYYRAM | GMNNRPS | SSRDSSGFQVF, the assay gave 3.41, 3.54, 3.11 (mean 3.35; controls 5 of 9). Variant EGDDLRSYYAN | GYNNRPS | SSRDSSGFQVF showed 3.45, 2.88, 4.44 (mean 3.59; controls 3 of 9). Variant EGDSLRYYYAN | GINNRPS | SSRPSSGDQVF gave ND, 3.81, ND (controls 3 of 9). Variant EGDSLRYYYAN | GYNNRPI | SSRDSSGFQVF gave 3.31, 3.66, 3.56 (mean 3.51; controls 1 of 9).

With EGDSLRYYYAN | GWNNMPP | SSRDSSGFQVF the result was 4.20, 4.33, ND (mean 4.26; controls 2 of 9). For EGDSLRYYYAN | GANNRPS | GSRDDSGFQVF, the assay gave 3.03, 3.91, ND (mean 3.47; controls 5 of 9). Variant EGDSLRYYNAN | GRNNRPS | SSGDSSGFQVF showed 2.73, 2.98, 2.36 (mean 2.69; controls 1 of 9). With EGDSLEYYYAN | GLMNRPS | SSRDSSGFQVF the result was ND, 3.78, 3.30 (mean 3.54; controls 1 of 9). With EGDFLRYYYAN | GENNRGS | SSRDSSGFQVF the result was 3.23, 3.12, 2.86 (mean 3.07; controls 3 of 9). Variant EGDSLKYYYAN | GSNIRPS | SSRDSSGFQVF showed 2.99, 3.02, 3.85 (mean 3.29; controls 2 of 9). Variant EGTSLRYYYAN | GMNNRPS | FSRDSSGFQVF gave 3.63, 3.60, 2.57 (mean 3.27; controls 7 of 9). Variant EGDSLRYYYAN | ISNNRPS | SSRDSSGFQVF showed 4.16, ND, ND (controls 1 of 9).

With EGDSLRYYYAN | GTNNRPS | SSRDSSGVQVK the result was 4.05, ND, ND (controls 1 of 9). Variant EGDSLRYYYAN | GQNNRPS | HSRDSSGFQVF gave 3.84, 4.27, 4.46 (mean 4.19; controls 2 of 9). For EGDSLRYYYAN | GQNNRPS | SSRDSSGFQVF, the assay gave 1.59, 1.83, 1.34 (mean 1.59; controls 4 of 9). With EGDSLRYIYAN | GLSNRPS | SSRDSSGFQVF the result was ND, 5.38, ND (controls 2 of 9). With EGDNLRYYYAN | GWNNRPS | SSRDSFGFQVF the result was 3.01, 3.32, 2.23 (mean 2.85; controls 5 of 9). With EGDSLRYYYAN | GINNRPS | SSRDSSLFQVL the result was ND, ND, ND (controls 1 of 9). With EGDSLRYYRAN | GPNNRPS | SSRDSSIFQVF the result was 2.39, 2.03, 1.59 (mean 2.00; controls 2 of 9). With EGDSLRYYYAN | GRNNRPS | SSRCSSGFQVW the result was 2.91, 3.01, 2.44 (mean 2.79; controls 7 of 9).

Variant EGDSLRYYYAN | GSNNRPS | SRRDSSIFQVF showed ND, 4.98, ND (controls 2 of 9).

Repeated from above, the 3 best binders with a signal in all replicates:

CDR-L1,CDR-L2,CDR-L3,"replicates, log10 nM","mean, log10 nM",signal with controls
EGDSLRYYYAN,GQNNRPS,SSRDSSGFQVF,"1.59, 1.83, 1.34",1.59,4/9
EGDSLRYYYAN,GDNNRPS,SSRDWSSFQVF,"2.01, 2.00, 1.41",1.81,5/9
EGDSLRYRYAN,GVNNRPS,SSRDSQGFQVF,"1.90, 2.01, 1.54",1.82,5/9

Reference: Engelhart et al. 2022, doi:10.1038/s41597-022-01779-4. File: FLAb, binding data.